SMILES strings stand for the structures.

For one assay, the system named is pSmad2 in BAL cells. The note with it: mouse, in vivo, 1 mg/kg.
For assay [1], the system named is bleomycin-induced lung fibrosis. The conditions noted are these: mouse, in vivo.
A further assay concerns serum C3M. The conditions noted are these: bleomycin 3 mg/kg, 15 mg/kg/day s.c. osmotic pump, prophylactic, in words.
In a further assay the test system is pSmad2 in lung tissue. The conditions noted are these: prophylactic dosing, 14 days post bleomycin, in words.
The next assay relates to βIG-H3. The note with it: mouse, in vivo.
The subject of another assay is PAI-1. The note with it: mouse, in vivo.
For assay [2], the system named is bleomycin-induced pulmonary fibrosis. The note with it: mouse, in vivo.

As for `Cc1cc(C)n(-c2cccc([C@H](CC(=O)O)CN3CC[C@@H](CCc4ccc5c(n4)NCCC5)C3)c2)n1` [GSK3008348], in the assay on pSmad2 in BAL cells, the “pSmad2 in BAL cells vs bleomycin/vehicle” value was “reduction”. Moreover, the lung hydroxyproline levels entry in assay [1] is recorded as “partial inhibition”. For the same compound, the “serum C3M” value with serum C3M was “substantial inhibition”. Moreover, the “phosphorylation of Smad2 in lung tissue” value with pSmad2 in lung tissue is recorded as “inhibited”. In the assay on βIG-H3, the “bleomycin-induced increase of βIG-H3 in BALF” value was “inhibited”. For the same compound, the “bleomycin-induced increase of PAI-1 in BALF” value in the assay with PAI-1 was “inhibited”. In assay [2], the “fibrosis by hydroxyproline and histology” value is reported as “significant reduction in fibrosis”.
